Experimental data as given in patent EP4545091A1 (priority 2023, dated 2025).

Tests used:
recombinant TMPRSS2 = experiment: Recombinant enzyme inhibition assay, TMPRSS2; settings: fluorogenic reporter substrate, Fig. 3A
TMPRSS11D = experiment: Cellular TMPRSS inhibition assay, TMPRSS11D; settings: protease overexpressed on HEK293T-cells, fluorogenic reporter substrate; Fig. 3C-D

## CC[C@H](C)[C@@H]1NC(=O)[C@H](Cc2ccccc2)NC(=O)[C@H](C)NC(=O)[C@H](CCCNC(=N)N)NC(=O)[C@@H]2CSSC[C@@H]3NC(=O)CNC(=O)CNC(=O)[C@H](Cc4ccc(O)cc4)NC(=O)[C@@H]4CCCN4C(=O)[C@H](Cc4ccccc4)NC(=O)[C@H](CC(C)C)NC(=O)[C@H](C(C)C)NC(=O)[C@H](CSSC[C@H](NC(=O)[C@H](CCC(=O)O)NC(=O)[C@H](CCCCN)NC(=O)[C@H](CCC(=O)O)NC(=O)[C@H](CO)NC(=O)[C@H](Cc4ccc(O)cc4)NC(=O)[C@H](Cc4ccccc4)NC(=O)[C@H](CCCCN)NC(=O)[C@H](CC(N)=O)NC(=O)CNC(=O)[C@H](CC(N)=O)NC(=O)CNC(=O)[C@H](CCC(N)=O)NC3=O)C(=O)N[C@@H](CCCNC(=N)N)C(=O)N[C@@H](CCC(=O)O)C(=O)N[C@@H](Cc3ccc(O)cc3)C(=O)N[C@H](C(=O)NCC(=O)N[C@H](C(=O)N3CCC[C@H]3C(=O)NCC(=O)N[C@@H](CC(=O)O)C(=O)NCC(=O)N[C@@H](CC(=O)O)C(=O)O)C(C)C)CSSC[C@H](NC(=O)[C@H](C)NC(=O)[C@H](C)NC(=O)[C@@H](N)C(C)C)C(=O)N[C@@H](CC(N)=O)C(=O)N[C@@H](CC(C)C)C(=O)N3CCC[C@H]3C(=O)N[C@@H]([C@@H](C)CC)C(=O)N[C@@H](C(C)C)C(=O)N[C@@H](CCCNC(=N)N)C(=O)NCC(=O)N3CCC[C@H]3C(=O)N2)NC(=O)[C@H](CCCCN)NC(=O)CNC(=O)[C@H](CCCCN)NC(=O)[C@H](C(C)C)NC(=O)[C@H](C)NC(=O)[C@H](CC(=O)O)NC(=O)[C@H](Cc2ccccc2)NC(=O)[C@H](C)NC(=O)[C@H](Cc2c[nH]c3ccccc23)NC(=O)[C@H](CC(C)C)NC(=O)[C@H](CCC(N)=O)NC1=O [Trypstatin]
Recombinant TMPRSS2
  inhibition of TMPRSS2 protease: inhibits
TMPRSS11D
  inhibition of TMPRSS 11D: inhibited
